# Values joined by “and” are separate entries in the source; they are usually repeats but may differ in a detail not shown here. Equal entries are not always repeated. Where two headings read alike, the source gives them in different places.
# The chains behind the UniProt entries cited, without tags or fusion partners. A line that says so, or that is headed by a name, gives the form on record, which may keep a tag or linker. Residues count along the entry.
# UniProt P51531, 1373-1493 isoform 2 limits assumed: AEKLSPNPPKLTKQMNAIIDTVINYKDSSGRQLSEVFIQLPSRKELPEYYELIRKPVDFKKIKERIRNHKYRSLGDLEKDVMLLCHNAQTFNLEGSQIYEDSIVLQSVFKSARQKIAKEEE
# UniProt P51531, whole entry: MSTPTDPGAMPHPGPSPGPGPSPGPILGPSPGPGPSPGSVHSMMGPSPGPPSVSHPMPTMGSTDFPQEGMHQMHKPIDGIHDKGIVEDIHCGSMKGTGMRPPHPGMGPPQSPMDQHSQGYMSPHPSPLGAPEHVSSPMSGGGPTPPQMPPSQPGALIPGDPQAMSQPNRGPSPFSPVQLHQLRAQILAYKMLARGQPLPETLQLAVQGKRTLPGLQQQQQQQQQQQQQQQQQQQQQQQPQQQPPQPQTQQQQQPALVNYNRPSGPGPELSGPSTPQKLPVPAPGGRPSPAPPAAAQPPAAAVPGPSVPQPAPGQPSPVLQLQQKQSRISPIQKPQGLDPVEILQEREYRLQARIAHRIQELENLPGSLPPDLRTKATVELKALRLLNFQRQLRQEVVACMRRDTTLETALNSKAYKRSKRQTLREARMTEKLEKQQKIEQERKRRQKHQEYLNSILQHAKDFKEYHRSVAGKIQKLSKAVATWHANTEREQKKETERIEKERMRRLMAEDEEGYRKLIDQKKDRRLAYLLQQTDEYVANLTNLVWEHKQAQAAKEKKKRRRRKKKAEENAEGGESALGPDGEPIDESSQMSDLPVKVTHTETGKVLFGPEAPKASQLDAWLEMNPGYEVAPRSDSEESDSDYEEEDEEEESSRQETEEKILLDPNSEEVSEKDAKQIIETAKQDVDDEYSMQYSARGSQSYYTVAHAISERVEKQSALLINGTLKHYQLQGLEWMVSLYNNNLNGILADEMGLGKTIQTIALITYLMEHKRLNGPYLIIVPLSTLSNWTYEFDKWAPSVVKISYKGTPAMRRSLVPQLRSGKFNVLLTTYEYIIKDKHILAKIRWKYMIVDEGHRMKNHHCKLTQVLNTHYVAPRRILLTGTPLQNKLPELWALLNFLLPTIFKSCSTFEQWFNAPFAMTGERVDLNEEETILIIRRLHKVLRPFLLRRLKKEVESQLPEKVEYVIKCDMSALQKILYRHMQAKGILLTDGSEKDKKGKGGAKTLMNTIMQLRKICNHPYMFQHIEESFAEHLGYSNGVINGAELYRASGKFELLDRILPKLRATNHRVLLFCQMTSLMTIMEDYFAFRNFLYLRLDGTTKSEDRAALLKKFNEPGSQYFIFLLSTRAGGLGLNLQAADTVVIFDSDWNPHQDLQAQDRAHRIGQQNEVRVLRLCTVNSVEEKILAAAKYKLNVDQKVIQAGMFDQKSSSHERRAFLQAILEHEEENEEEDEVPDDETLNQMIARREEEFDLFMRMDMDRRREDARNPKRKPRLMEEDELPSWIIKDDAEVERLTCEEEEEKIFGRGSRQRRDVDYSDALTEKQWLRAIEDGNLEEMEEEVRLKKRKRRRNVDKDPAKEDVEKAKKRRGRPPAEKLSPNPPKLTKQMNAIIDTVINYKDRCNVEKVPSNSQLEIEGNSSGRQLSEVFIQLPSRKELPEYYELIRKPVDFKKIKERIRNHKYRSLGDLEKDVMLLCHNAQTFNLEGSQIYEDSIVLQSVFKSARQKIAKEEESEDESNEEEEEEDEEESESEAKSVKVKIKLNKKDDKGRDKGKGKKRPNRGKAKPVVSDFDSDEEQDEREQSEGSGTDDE
# UniProt P51531, 1373-1493 with tags or gaps isoform 2 limits assumed: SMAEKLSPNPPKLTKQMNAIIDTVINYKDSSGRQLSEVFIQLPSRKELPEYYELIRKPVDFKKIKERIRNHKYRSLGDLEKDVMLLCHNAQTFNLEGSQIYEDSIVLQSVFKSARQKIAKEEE
# UniProt P40337, 54-213 limits assumed: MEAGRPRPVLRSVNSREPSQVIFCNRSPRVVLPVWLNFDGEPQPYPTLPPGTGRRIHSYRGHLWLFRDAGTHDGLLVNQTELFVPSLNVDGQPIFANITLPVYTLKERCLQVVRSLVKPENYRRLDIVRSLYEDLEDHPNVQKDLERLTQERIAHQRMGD
# UniProt P51532, 1448-1569 limits assumed: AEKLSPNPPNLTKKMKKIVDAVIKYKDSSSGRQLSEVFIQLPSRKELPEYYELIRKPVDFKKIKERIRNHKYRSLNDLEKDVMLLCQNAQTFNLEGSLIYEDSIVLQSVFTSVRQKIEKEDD
# UniProt P51532, whole entry: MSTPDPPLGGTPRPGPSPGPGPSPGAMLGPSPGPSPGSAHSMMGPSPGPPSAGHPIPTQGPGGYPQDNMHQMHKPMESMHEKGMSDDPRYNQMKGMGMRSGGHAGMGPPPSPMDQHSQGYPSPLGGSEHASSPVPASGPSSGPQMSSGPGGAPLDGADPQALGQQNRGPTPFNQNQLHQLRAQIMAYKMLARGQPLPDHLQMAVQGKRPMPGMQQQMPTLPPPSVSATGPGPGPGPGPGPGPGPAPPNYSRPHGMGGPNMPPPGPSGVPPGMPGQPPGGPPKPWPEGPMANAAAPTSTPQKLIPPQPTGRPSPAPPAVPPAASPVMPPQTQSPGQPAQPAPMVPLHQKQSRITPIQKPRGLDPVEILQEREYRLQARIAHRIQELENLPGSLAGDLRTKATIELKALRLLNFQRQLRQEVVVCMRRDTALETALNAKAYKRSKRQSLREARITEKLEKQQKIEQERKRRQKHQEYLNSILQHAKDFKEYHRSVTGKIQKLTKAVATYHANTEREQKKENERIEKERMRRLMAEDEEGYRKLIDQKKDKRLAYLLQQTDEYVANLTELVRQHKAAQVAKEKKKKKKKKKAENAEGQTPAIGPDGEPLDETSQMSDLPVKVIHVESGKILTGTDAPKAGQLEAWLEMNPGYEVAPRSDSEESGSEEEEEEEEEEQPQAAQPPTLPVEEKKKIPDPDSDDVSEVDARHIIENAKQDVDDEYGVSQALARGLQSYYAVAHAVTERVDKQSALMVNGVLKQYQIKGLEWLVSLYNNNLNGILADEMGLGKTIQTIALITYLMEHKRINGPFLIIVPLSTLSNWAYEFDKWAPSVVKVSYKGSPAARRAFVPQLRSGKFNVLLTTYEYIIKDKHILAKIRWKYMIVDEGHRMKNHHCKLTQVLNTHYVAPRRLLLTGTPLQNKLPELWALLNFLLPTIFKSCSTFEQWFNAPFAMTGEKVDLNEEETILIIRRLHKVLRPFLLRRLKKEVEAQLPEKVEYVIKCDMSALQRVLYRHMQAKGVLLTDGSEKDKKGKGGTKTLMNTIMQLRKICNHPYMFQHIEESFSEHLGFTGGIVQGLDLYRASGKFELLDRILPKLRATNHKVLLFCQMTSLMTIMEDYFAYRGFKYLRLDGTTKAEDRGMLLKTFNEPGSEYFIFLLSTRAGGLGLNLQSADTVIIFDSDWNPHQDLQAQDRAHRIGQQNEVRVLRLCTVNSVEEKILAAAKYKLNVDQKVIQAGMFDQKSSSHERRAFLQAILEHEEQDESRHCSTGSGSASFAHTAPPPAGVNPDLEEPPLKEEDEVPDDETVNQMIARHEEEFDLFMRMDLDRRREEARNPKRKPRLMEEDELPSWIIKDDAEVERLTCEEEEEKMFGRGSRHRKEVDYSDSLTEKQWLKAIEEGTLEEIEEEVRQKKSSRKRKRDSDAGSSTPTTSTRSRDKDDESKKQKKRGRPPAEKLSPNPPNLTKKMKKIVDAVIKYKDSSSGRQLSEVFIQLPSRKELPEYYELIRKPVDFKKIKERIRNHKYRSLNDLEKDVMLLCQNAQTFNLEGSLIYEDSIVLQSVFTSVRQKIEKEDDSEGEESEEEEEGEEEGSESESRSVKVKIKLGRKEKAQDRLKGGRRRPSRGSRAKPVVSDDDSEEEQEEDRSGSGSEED
# UniProt Q86U86, 645-766 limits assumed: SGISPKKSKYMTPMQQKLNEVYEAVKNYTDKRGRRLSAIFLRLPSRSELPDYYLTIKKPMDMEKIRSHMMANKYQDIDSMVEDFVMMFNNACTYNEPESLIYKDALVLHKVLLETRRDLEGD
# UniProt Q15369, 17-112 partner limits assumed: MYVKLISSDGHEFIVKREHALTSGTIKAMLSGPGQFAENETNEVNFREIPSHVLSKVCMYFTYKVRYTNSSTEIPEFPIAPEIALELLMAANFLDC
# UniProt Q15370, 1-104 partner limits assumed: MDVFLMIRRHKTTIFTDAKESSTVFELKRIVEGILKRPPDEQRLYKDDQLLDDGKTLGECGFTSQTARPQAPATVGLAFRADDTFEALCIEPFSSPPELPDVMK
# What was measured:
# [1] = system: VCB: PROTAC: SMARCA2^BD ternary complex; assay: TR-FRET ternary complex affinity and cooperativity, SMARCA2; format: binding, human; conditions: ratio TR-FRET EC50 / TR-FRET EC50 +VCB measured in the same run, SMARCA2BD
# [2] = target: VCB: PROTAC: SMARCA2^BD ternary complex (Homo sapiens, UniProt P51531); assay: as above; format: binding; conditions: read-out: TR-FRET SMARCA2BD EC50; TR-FRET competition for SMARCA2BD, without VCB; mean ± SD
# [3] = target: T1, VCB: PROTAC: SMARCA2^BD ternary complex (Homo sapiens, UniProt P40337+P51531); assay: as above; format: binding; conditions: read-out: TR-FRET Ternary SMARCA2BD EC50 (PROTAC + VCB); TR-FRET competition for SMARCA2BD, + VCB; mean ± SD
# SMARCA2 [4] = target: T2, SMARCA2 (Homo sapiens, UniProt P51531); assay: SMARCA2 capillary electrophoresis protein assay in RKO cells; conditions: mean ± SD; for DC50: read-out: SMARCA2 DC50
# SMARCA4 [5] = target: T3, SMARCA4 (Homo sapiens, UniProt P51532); assay: Imaging-based SMARCA4 protein assay in RKO cells; conditions: read-out: RKO (18h) SMARCA4 DC50, 18h, individual replicates
# Caco-2 cell monolayer = assay: Bidirectional permeability measurement in Caco-2 cells
# [6] = system: VCB: PROTAC: SMARCA4^BD ternary complex; assay: TR-FRET ternary complex affinity and cooperativity, SMARCA4; format: binding, human; conditions: ratio TR-FRET EC50 / TR-FRET EC50 +VCB measured in the same run, SMARCA4BD
# [7] = target: (Homo sapiens, UniProt P51532); assay: as above; format: binding; conditions: read-out: TR-FRET SMARCA4BD EC50; TR-FRET competition for SMARCA4BD, without VCB; mean ± SD
# [8] = target: T4, VCB: PROTAC: SMARCA4^BD ternary complex (Homo sapiens, UniProt P40337+P51532); assay: as above; format: binding; conditions: read-out: TR-FRET Ternary SMARCA4BD EC50 (PROTAC + VCB); TR-FRET competition for SMARCA4BD, + VCB; mean ± SD
# SMARCA2 [9] = target: T2, SMARCA2; assay: Imaging-based SMARCA2 protein assay in RKO cells; conditions: read-out: RKO (18h) SMARCA2 DC50, 18h, individual replicates
# PBRM1BD5 [10] = target: PBRM1BD5 (Homo sapiens, UniProt Q86U86); assay: TR-FRET ternary complex affinity and cooperativity, PBRM1; conditions: read-out: TR-FRET PBRM1BD EC50; TR-FRET competition for PBRM1BD5, without VCB; mean ± SD
# PBRM1BD5 [11] = target: PBRM1BD5 (Homo sapiens, UniProt P40337+Q86U86); assay: as above; conditions: read-out: TR-FRET Ternary PBRM1BD EC50 (PROTAC + VCB); TR-FRET competition for PBRM1BD5, + VCB; mean ± SD
# PBRM1BD5 [12] = assay: as above; conditions: ratio TR-FRET EC50 / TR-FRET EC50 +VCB measured in the same run, PBRM1BD5
# SMARCA2^BD = SMARCA2^BD (Homo sapiens, UniProt P51531); assay: SPR binding to immobilised SMARCA2 bromodomain
# NCI-H1568 cells = assay: Cell viability assay (CellTiter Glo) in NCI-H1568
# [13] = target: T4, VCB: PROTAC: SMARCA4^BD ternary complex; assay: SPR ternary complex measurement, VCB immobilised, 10 µM SMARCA4^BD present; conditions: for Kd: read-out: VCB + SMARCA4 KD, SPR
# VCB complex = VCB complex (Homo sapiens, UniProt P40337); assay: SPR binary binding to immobilised VCB complex; conditions: read-out: VCB KD, binary binding to VCB, mean ± SD
# [14] = target: T1, VCB: PROTAC: SMARCA2^BD ternary complex; assay: SPR ternary complex measurement, VCB immobilised, 10 µM SMARCA2^BD present; conditions: for Kd: read-out: VCB + SMARCA2 KD, SPR
# SMARCA4^BD = SMARCA4^BD (Homo sapiens, UniProt P51532); assay: SPR binding to immobilised SMARCA4 bromodomain
# SMARCA4 [15] = target: T3, SMARCA4; assay: SMARCA4 capillary electrophoresis protein assay in RKO cells; conditions: mean ± SD; for DC50: read-out: SMARCA4 DC50
smiles,measurement,setting,value
Cc1ncsc1-c1ccc([C@H](CCCN2CCC(c3ccc4c(c3)n(C3CCCC3)c3nc(=O)c5c(Br)cccc5n43)CC2)NC(=O)[C@@H]2C[C@@H](O)CN2C(=O)[C@@H](NC(=O)C2(N(C)C)CC2)C(C)(C)C)cc1,cooperativity α (SMARCA2BD),[1],3.3 ± 1.5
same,EC50,[2],0.052 µM
same,EC50,[3],0.017 µM
same,SMARCA2 Dmax,SMARCA2 [4]; RKO (4 h),72 ± 7%
same,SMARCA2 Dmax,SMARCA2 [4]; RKO (18 h),83 ± 4%
same,DC50,SMARCA2 [4]; RKO (4 h),0.004 µM
same,DC50,SMARCA2 [4]; RKO (18 h),0.003 µM
same,Solubility pH 4.5,Solubility testing; pH 4.5,<1.000 <1.000 ug/mL
same,Solubility pH 6.8,Solubility testing; pH 6.8,<1.000 <1.000 ug/mL
same,DC50,SMARCA4 [5],0.0175 µM and 0.0305 µM and 0.0467 µM
same,Mic. Stab. Human,Microsomal stability; human liver microsomes,68 ± 3 % QH
same,Mic. Stab. Human QH,Microsomal stability; human liver microsomes,70.000% and 66.200%
same,Mic. Stab. Mouse QH,Microsomal stability; mouse liver microsomes,79.200% and 63.000%
same,Mic. Stab. Rat,Microsomal stability; rat liver microsomes,<23 % QH
same,Mic. Stab. Rat QH,Microsomal stability; rat liver microsomes,<23.100 <23.100%
same,Caco-2 Pab,Caco-2 cell monolayer,2 ± 1 10-6 cm/s
same,cooperativity α (SMARCA4BD),[6],1.8 ± 0.4
same,EC50,[7],0.097 µM
same,EC50,[8],0.054 µM
same,DC50,SMARCA2 [9],1.78 nM and 4.04 nM (2×)
same,EC50,PBRM1BD5 [10],0.022 µM
same,EC50,PBRM1BD5 [11],0.003 µM
same,cooperativity α (PBRM1BD),PBRM1BD5 [12],6.6 ± 0.5
same,Kd,"SMARCA2^BD; read-out: SMARCA2 KD, SMARCA2BD, mean ± SD",0.045 µM
same,Kd,"SMARCA2^BD; read-out: SMARCA2 KD, individual replicates",0.0483 µM and 0.0448 µM and 0.0422 µM
same,EC50,"NCI-H1568 cells; read-out: EC50 cell proliferation (CellTiter Glo), NCI-H1568 (168 h), mean ± SD",0.018 µM
same,IC50,"NCI-H1568 cells; read-out: NCI-H1568 (18h) CTG, NCI-H1568, (18h), CellTiter Glo, individual replicates",0.0243 µM and 0.0219 µM and 0.0105 µM
same,alpha,"[13]; cooperativity, SMARCA4, ratio of KD values measured in the same run",0.5
same,Kd,"[13]; ternary complex with SMARCA4BD, mean ± SD",0.069 µM
same,Kd,"[13]; ternary, individual replicates",0.0642 µM and 0.0648 µM and 0.079 µM
same,Kd,VCB complex,0.037 µM
same,alpha,"[14]; cooperativity, SMARCA2, ratio of KD values measured in the same run",0.2
same,Kd,"[14]; ternary complex with SMARCA2BD, mean ± SD",0.175 µM
same,Kd,"[14]; ternary, individual replicates",0.107 µM and 0.262 µM and 0.156 µM
same,Kd,"SMARCA4^BD; read-out: SMARCA4 KD, SMARCA4BD, mean ± SD",0.092 µM
same,Kd,"SMARCA4^BD; read-out: SMARCA4 KD, individual replicates",0.0736 µM and 0.0974 µM and 0.106 µM
same,SMARCA4 Dmax,SMARCA4 [15]; RKO (4 h),53 ± 15%
same,SMARCA4 Dmax,SMARCA4 [15]; RKO (18 h),76 ± 4%
same,DC50,SMARCA4 [15]; RKO (4 h),0.018 µM
same,DC50,SMARCA4 [15]; RKO (18 h),0.029 µM
